In test [1] the target is T1, LIMK2 (Homo sapiens, UniProt P53671). The test can be described thus: RapidFire mass spectrometry kinase assay (cofilin phosphorylation). It counts as biochemical.
For test [2], the target named is PAK1-phosphorylated LIMK2 (Homo sapiens, UniProt P53671). The experiment in a line: RapidFire mass spectrometry kinase assay, PAK1-phosphorylated enzyme. The format is biochemical.
Test [3] addresses T1, LIMK2. The experiment in a line: Cellular NanoBRET target engagement in HEK293 cells. It counts as cell-based.
For test [4], the target named is T1, LIMK2. The following applies: KdELECT, DiscoverX.

The chains behind the UniProt entries cited, without tags or fusion partners. Residues count along the entry.
UniProt P53671, 330-632 limits assumed: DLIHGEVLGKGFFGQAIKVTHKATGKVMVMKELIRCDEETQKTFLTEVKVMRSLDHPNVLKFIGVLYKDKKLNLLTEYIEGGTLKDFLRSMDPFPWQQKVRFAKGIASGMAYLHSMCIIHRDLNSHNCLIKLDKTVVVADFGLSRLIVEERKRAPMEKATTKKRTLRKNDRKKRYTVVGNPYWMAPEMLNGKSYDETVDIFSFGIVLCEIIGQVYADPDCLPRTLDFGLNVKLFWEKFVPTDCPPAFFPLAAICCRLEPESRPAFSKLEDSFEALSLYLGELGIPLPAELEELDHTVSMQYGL

Each structure is given as a SMILES string. Marks after values point to notes of the source that are not given here.

Usually IC50 stands for the concentration needed to halve the response being measured. A higher IC50 goes with weaker potency in that assay. Regarding `N#CCCN(Cc1ccncc1)C(=O)c1ccc(S(=O)(=O)Nc2ccccc2)cc1` [Compound 55, N-(2-Cyanoethyl)-4-(phenylsulfamoyl)-N-(4-pyridylmethyl)benzamide], the results for the IC50 in test [1] and in test [2] were 85.1 nM and 50.1 nM, respectively. The “nanoBRET pIC50 LIMK2” value in test [3] is reported as 5.86 ± 0.16 ^e. For the same compound, the “binding affinity (pKd) LIMK2” value in test [4] is 7.00 ^d.
